Data published in ChEMBL document CHEMBL1133454, “Structure-activity studies of reduced-size gonadotropin-releasing hormone agonists derived from the sequence of an endothelin antagonist” (J Med Chem, 2000).

By UniProt entry, the sequences of proteins in these tests, tags left out. Where a name states a change or a piece, a line headed by the entry shows the natural chain unless it says otherwise.
UniProt P26684: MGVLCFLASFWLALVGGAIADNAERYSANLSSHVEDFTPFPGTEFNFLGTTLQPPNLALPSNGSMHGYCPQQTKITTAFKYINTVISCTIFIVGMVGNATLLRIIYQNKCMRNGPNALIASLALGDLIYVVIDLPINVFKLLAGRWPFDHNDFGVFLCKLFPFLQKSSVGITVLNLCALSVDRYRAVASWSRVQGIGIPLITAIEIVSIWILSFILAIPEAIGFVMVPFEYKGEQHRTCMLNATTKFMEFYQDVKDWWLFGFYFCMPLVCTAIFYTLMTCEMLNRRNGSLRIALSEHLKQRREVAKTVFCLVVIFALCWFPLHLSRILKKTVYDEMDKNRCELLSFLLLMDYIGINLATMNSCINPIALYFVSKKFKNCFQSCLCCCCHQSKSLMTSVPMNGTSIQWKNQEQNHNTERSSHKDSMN
UniProt P21451: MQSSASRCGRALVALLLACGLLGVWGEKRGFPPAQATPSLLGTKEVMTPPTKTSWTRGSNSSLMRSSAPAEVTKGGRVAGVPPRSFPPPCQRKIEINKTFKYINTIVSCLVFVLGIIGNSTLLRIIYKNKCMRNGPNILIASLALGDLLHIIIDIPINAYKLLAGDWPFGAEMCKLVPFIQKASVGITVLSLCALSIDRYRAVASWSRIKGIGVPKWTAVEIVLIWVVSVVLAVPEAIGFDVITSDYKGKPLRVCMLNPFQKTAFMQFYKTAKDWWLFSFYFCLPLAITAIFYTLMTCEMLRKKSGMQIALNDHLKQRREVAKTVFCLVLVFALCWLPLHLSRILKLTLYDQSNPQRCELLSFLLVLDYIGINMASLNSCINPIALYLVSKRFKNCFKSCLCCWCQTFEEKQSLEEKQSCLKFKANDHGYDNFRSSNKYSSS

Biological target: Endothelin receptor (Rattus norvegicus, UniProt P26684+P21451)
Assay: Inhibition constant for the displacement of specific binding of [125I]-ET (Kd=2 nM) bound to rat pituitary membrane
Assay type: tissue-based, Pituitary gland
In short: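 Pituitary membranes from random-cycling Wistar-derived rats (50 μg protein/tube) incubated 120 min at 37 °C with 25 pM 125I-ET-1 and rising concentrations of unlabeled peptide in 10 mM Tris-HCl/0.1% BSA. Filtered on GF/C and gamma-counted. Nonspecific binding defined with 1 μM ET-1. Ki from displacement curves; two triplicate experiments, mean ± SEM.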

CC[C@H](C)[C@H](NC(=O)[C@H](CC(=O)O)NC(=O)[C@H](CC(C)C)NC(=O)[C@@H](Cc1c[nH]c2ccccc12)NC(C)=O)C(=O)N[C@H](C(=O)N[C@@H](Cc1c[nH]c2ccccc12)C(=O)O)[C@@H](C)CC
Ki: 120 nM
